The list shows a part of the results, in another mix than the full data. Active and inactive are the calls of the source. Cut-off read from the data, not from the text of the source: active = fluorescence above about 89; inactive = the rest.
Experiment: compound fluorescence on glutathione beads, profiling panel, artefact control, biophysical, 488/530 nm, flow cytometry (AID 1776);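 note: glutathione beads carrying GST-tagged Bcl family fusion proteins plus one bare bead set; values are compound well signal with DMSO vehicle wells as background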
Details: GSH beads flow cytometry, compound fluorescence 488/530 nm; at 10 µM; hits give high values

SMILES | fluorescence (KMESF)
CC(C)c1ccc(OP(C)(=O)Nc2ccc(SC(F)(F)F)cc2)cc1 (centres undefined) | inactive: 18
CP(=O)(Nc1ccccc1F)Oc1ccccc1 (centres undefined) | inactive: 35
O=C(OCCN1CCN(CCOCc2ccccc2)CC1)C(O)(c1ccccc1)c1ccccc1 | inactive: 10
COc1ccc(OP(C)(=O)Nc2ccc(SC(F)(F)F)cc2)cc1 (centres undefined) | inactive: 13
CCOC(=O)c1ccc(NP(C)(=O)Oc2ccc(F)cc2)cc1 (centres undefined) | inactive: 24
CCN(CC)CCCOC(=O)C(O)(c1ccccc1)C1CCCCC1 (centres undefined) | inactive: 19
CP(=O)(Nc1ccccc1)Oc1ccc(F)cc1 (centres undefined) | inactive: 18
COc1ccc(OP(C)(=O)Nc2cccc(Br)c2)cc1 (centres undefined) | inactive: 26
COc1ccc(NP(C)(=O)Oc2ccccc2OC)cc1 (centres undefined) | inactive: 12
CN(C)CCOC(=O)C(O)(c1ccccc1)C1CCCCC1 (centres undefined) | inactive: 12
O=[N+]([O-])c1cc([N+](=O)[O-])c(NCC2CCS(=O)(=O)C2)c([N+](=O)[O-])c1 (centres undefined) | inactive: 12
CCOP(C)(=S)SCC(=O)NC(C)(CC)C(=O)O (centres undefined) | inactive: 25
CP(=O)(Nc1ccc2c(c1)OCCO2)Oc1ccccc1 (centres undefined) | inactive: 22
Cc1ccccc1NP(C)(=O)Nc1ccccc1C | inactive: 24
COc1ccc(OP(C)(=O)Nc2ccc(Br)cc2)cc1 (centres undefined) | inactive: 6
CCN(CC)CC(O)COC(=O)C(O)(c1ccccc1)C1CCCCC1 (centres undefined) | inactive: 7
CCc1ccc(OP(C)(=O)Nc2cccnc2)cc1 (centres undefined) | inactive: 13
CP(=O)(Oc1ccccc1)N1CCOC1=O (centres undefined) | inactive: 6
CP(=O)(Nc1ccc(Cl)cc1)Oc1ccc(F)cc1 (centres undefined) | inactive: 17
CC(C)(C)c1ccc(OP(C)(=O)O)cc1 | inactive: 13
COc1ccccc1OP(C)(=O)Nc1ccccc1Br (centres undefined) | inactive: 9
CN(C)C(=O)c1c([N+](=O)[O-])cc([N+](=O)[O-])cc1[N+](=O)[O-] | inactive: 13
CP(=O)(OC12CC3CC(CC(C3)C1)C2)OC12CC3CC(CC(C3)C1)C2 | inactive: 25

SMILES | fluorescence (KMESF)
CCOC(=O)c1ccc(NP(C)(=O)Oc2ccc(Cl)cc2)cc1 (centres undefined) | inactive: 10
Cc1cc(C)cc(OP(C)(=O)Nc2cccc(C(F)(F)F)c2)c1 (centres undefined) | inactive: 11
COc1ccc(OP(C)(=O)Nc2ccccc2Br)cc1 (centres undefined) | inactive: 19
COc1ccccc1OP(C)(=O)Nc1ccc(C)c(C)c1 (centres undefined) | inactive: 5
Cc1nc2ccc3ccccc3c2o1.O=[N+]([O-])c1cc([N+](=O)[O-])c(O)c([N+](=O)[O-])c1 | inactive: 9
CP(=O)(OCCOc1ccccc1)OCCOc1ccccc1 | inactive: 11
CP(=O)(Nc1ccc(Cl)cc1Cl)Oc1ccccc1 (centres undefined) | inactive: 16
CN(C)CCOC(=O)C(O)(c1ccccc1)C1CCCC1 (centres undefined) | inactive: 27
COc1ccc(OP(C)(=O)Nc2ccccn2)cc1 (centres undefined) | inactive: 52
O=[N+]([O-])c1cc([N+](=O)[O-])c(Nc2ccccn2)c([N+](=O)[O-])c1 | inactive: 52
Cc1c(NP(C)(=O)Oc2ccc(C(C)C)cc2)c(=O)n(-c2ccccc2)n1C (centres undefined) | inactive: 28
CCc1ccc(OP(C)(=O)O)cc1 | inactive: 22
COc1ccccc1OP(C)(=O)Nc1ccc(C)cc1C (centres undefined) | inactive: 9
CP(=O)(Nc1ccccn1)Oc1ccccc1 (centres undefined) | inactive: 11
CCN(CC)CCCOC(=O)C(O)(c1ccccc1)c1ccccc1 | inactive: 11
Cc1cccc(C)c1OP(C)(N)=O (centres undefined) | inactive: 10
CC(C)(C)c1ccc(OP(C)(=O)Nc2ccc(SC(F)(F)F)cc2)cc1 (centres undefined) | inactive: 5
O=[N+]([O-])c1ccc2c(c1)C=Nc1ccccc1O2 | inactive: 15
CCOC(=O)c1ccc(NP(C)(=O)Oc2ccccc2)cc1 (centres undefined) | inactive: 10
Cc1ccc(NP(C)(=O)Oc2ccccc2)c(C)c1 (centres undefined) | inactive: 46
COc1ccccc1OP(C)(=O)Nc1ccc(C)cc1 (centres undefined) | inactive: 21
COc1ccc(OP(C)(=O)Nc2cccc(F)c2)cc1 (centres undefined) | inactive: 25
COc1ccccc1OP(C)(=O)Nc1cc(Cl)ccc1C (centres undefined) | inactive: 11

SMILES | fluorescence (KMESF)
Cc1cc(C)cc(OP(C)(N)=O)c1 (centres undefined) | inactive: 15
CP(=S)(Nn1cnnc1)Oc1ccccc1 (centres undefined) | inactive: 51
COc1ccccc1OP(C)(=O)Nc1ccccc1 (centres undefined) | inactive: 20
CP(=O)(Nc1ccccc1Br)Oc1ccccc1 (centres undefined) | inactive: 12
CP(=O)(Oc1ccccc1)OC(c1ccccc1)C(F)(F)F (centres undefined) | inactive: 16
Cc1cccc(C)c1OP(C)(=O)Nc1ccc(SC(F)(F)F)cc1 (centres undefined) | inactive: 15
Cc1cc(C)cc(OP(C)(=O)Nc2ccc(SC(F)(F)F)cc2)c1 (centres undefined) | inactive: 17
CP(=O)(NC(=O)Nc1ccccc1)Oc1ccccc1 (centres undefined) | inactive: 5
CCOP(C)(=S)SCC(=O)NC(C)C(=O)O (centres undefined) | inactive: 15
CCOC(=O)c1ccc(NP(C)(=O)Oc2ccc(OC)cc2)cc1 (centres undefined) | inactive: 17
CP(=O)(Nc1ccccn1)Oc1ccc(Cl)cc1 (centres undefined) | inactive: 16
O=[N+]([O-])c1cc([N+](=O)[O-])c(-n2nnc3ccccc32)c([N+](=O)[O-])c1 | inactive: 17
Cc1nc2ccc3ccccc3c2s1.O=[N+]([O-])c1cc([N+](=O)[O-])c(O)c([N+](=O)[O-])c1 | inactive: 35
CN1CCCCC1COC(=O)C1(O)c2ccccc2CCc2ccccc21 (centres undefined) | inactive: 16
COc1ccccc1OP(C)(=O)Nc1c(C)cccc1C (centres undefined) | inactive: 32
CP(=O)(Nc1ccc(SC(F)(F)F)cc1)Oc1ccccc1 (centres undefined) | inactive: 10
CCCOc1ccc(NP(C)(=O)Oc2ccc(Cl)cc2)cc1 (centres undefined) | inactive: 12
CC1=NCCc2c1[nH]c1ccccc21.O=[N+]([O-])c1cc([N+](=O)[O-])c(O)c([N+](=O)[O-])c1 | inactive: 13
Cc1cc(C)cc(OP(C)(=O)Nc2ccc(C)cc2C)c1 (centres undefined) | inactive: 52
CCOC(=O)c1ccc(NP(C)(=O)Oc2cc(C)cc(C)c2)cc1 (centres undefined) | inactive: 22
CP(=O)(Nc1cccc(Br)c1)Oc1ccccc1 (centres undefined) | inactive: 13
Cc1cc(C)cc(OP(C)(=O)Nc2ccccn2)c1 (centres undefined) | inactive: 33
Cc1ccc(C)c(NP(C)(=O)Oc2ccccc2)c1 (centres undefined) | inactive: 32

Reference: PubChem BioAssay AID1776 (NMMLSC, 2009)
